{"source": "patent US8354374B2", "about": "“Peptides having pharmacological activity for treating disorders associated with altered cell migration, such as cancer” (Pharmaphelix S.R.L., priority 2006, dated 2013)", "origin": "cited, not measured here", "test_system": "rat", "conditions": "in vivo; cited from earlier work", "data": [{"substance": "Kisspeptin-54", "values": [{"measurement": "adverse effect of long-term administration", "value": "atrophy of the gonads"}]}]}
